{"sequences": {"note": "The chains behind the UniProt entries cited, without tags or fusion partners.", "UniProt Q93009, whole entry": "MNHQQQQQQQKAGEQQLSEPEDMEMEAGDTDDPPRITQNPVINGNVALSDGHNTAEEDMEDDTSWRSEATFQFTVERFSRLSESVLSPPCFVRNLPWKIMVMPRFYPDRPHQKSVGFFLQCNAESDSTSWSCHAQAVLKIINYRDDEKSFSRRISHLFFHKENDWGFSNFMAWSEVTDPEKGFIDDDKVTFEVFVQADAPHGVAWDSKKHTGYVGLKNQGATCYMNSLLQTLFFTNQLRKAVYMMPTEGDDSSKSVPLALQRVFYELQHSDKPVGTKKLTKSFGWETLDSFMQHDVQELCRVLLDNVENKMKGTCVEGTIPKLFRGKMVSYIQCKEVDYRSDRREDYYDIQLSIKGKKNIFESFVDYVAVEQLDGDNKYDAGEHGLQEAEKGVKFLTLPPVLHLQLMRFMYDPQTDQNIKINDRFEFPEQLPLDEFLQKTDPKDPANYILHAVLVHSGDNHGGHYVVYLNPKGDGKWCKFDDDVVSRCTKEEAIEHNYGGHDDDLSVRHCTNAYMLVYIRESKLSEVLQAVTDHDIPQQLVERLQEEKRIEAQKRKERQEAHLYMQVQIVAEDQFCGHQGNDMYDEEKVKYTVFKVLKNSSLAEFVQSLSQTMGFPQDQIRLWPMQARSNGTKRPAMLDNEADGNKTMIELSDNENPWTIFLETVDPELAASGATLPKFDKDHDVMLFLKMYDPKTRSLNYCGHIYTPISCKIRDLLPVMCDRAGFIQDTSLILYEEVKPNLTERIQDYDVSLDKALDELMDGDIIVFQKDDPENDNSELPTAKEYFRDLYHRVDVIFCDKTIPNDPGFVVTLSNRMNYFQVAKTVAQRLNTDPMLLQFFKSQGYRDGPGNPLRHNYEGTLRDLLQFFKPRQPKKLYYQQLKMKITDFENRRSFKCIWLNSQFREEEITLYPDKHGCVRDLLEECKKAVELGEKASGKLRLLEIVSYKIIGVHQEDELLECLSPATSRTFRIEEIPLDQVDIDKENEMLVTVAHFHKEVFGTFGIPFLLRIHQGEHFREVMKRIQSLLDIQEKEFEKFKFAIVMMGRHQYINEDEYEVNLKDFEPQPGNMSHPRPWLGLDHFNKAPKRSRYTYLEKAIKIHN"}, "source": "patent US20240408094A1", "about": "“INHIBITION OF USP7 INDUCES P53-INDEPENDENT TUMOR GROWTH SUPPRESSION IN TRIPLE-NEGATIVE BREAST CANCERS BY DESTABILIZING FOXM1” (The Trustees of Columbia University in the City of New York, priority 2023, published 2024)", "key": {"[1]": {"tested_on": "FOXM1 downstream target genes", "experiment": "RNAseq and quantitative real-time PCR of FOXM1 target genes in CAL33", "format": "cell-based, human", "conditions": "CAL33, 10 μM, 96 h", "method": "(§1) FIGS. 4F and 4G show CAL33 cells treated with or without 10 μM of PU7-1 for 96 h. Total RNA was extracted and subjected to RNAseq analysis. Differentially expressed genes were further analyzed. Heatmap in FIG. 4G represents the downregulation of known FOXM1 target genes.\nTranscription factor FOXM1 is a master regulator of the cell cycle. It tightly controls the cell cycle progression and maintains sustained cell proliferation via its various downstream target genes crucial for cell cycle regulation 16. To explore the functional consequences of PU7-1-mediated FOXM1 degradation, a transcriptome analysis was performed. CAL33 cells were treated with or without 10 μM of PU7-1 for 96 h and total RNA were extracted for RNAseq analysis. We identified ˜5000 differentially expressed genes (DEGs) in DMSO-treated versus PU7-1-treated cells (FIG. 22). […] This effect was further validated in CAL33 cells by quantitative real-time PCR (FIG. 4H)."}, "FOXM1": {"tested_on": "FOXM1", "experiment": "FOXM1 protein levels by immunoblot in CAL33 cells", "format": "cell-based, human", "conditions": "dose- and time-dependent", "method": "as §1\nCells were lysed in FLAG lysis buffer (50 mM Tris-HCl (pH 7.3), 137 mM NaCl, 10 mM NaF, 0.5 mM EDTA, 1% Triton X-100, 0.2% Sarkosyl, 10% glycerol) freshly supplemented with protease inhibitor cocktail. Protein concentration was determined by the Bio-Rad protein assay. Whole cell extracts were then resolved by Novex Tris-Glycine gel (Thermo Scientific) and transferred to a Nitrocellulose membrane (Millipore). Membranes were blocked with 5% (w/v) nonfat milk in Tris-buffered saline with Tween-20 (TBST), incubated with primary antibodies, then secondary HRP-conjugated antibodies (Jackson ImmunoResearch, 1:10000 dilution) and detected on autoradiographic films after incubating with ECL (Thermo Scientific, #32106). Primary antibodies used in this study include anti-USP7 (Cell Signaling, #4833), anti-CRBN (Cell Signaling, #71810); anti-P53 (SantaCruz Biotechnology, sc-126), anti-PUMA (Santa Cruz Biotechnology Cat #sc-28226); anti-p21 (Santa Cruz Biotechnology Cat #sc-53870); anti-FOXM1 (Cell Signaling, #5436); anti-Actin (Sigma-Aldrich Cat #A5441); anti-vinculin (Sigma-Aldrich Cat #V9131)."}, "[2]": {"tested_on": "deubiquitinases (proteome-wide)", "experiment": "Mass spectrometry-based quantitative proteomic analysis in A549 cells", "format": "cell-based, human", "conditions": "2.5 μM, 72 h", "method": "(§2) USP7 protein levels were detected by immunoblots. […] USP7 protein levels were measured by immunoblots. […] USP7 protein levels were detected by immunoblots, then quantified by ImageJ after normalized to internal control β-actin. Half maximal degradation concentration (DC50) was calculated by Graphpad Prism.\n(§3) The expression of USP proteins was detected by immunoblotting. […] Quantitative proteomics analysis were then performed. The volcano plot represents all deferentially expressed genes in DMSO control versus PU7-1.\n(§4) Lastly, because of the high homology in USP protein family, the selectivity of PU7-1 against potential off-target effects was studied. Western blot analysis of several USPs including USP47, the closest homolog of USP7, were performed in CAL33 cells treated with 10 μM of PU7-1 for 72 h. […] To further investigate the selectivity of PU7-1 proteome-wide, mass spectrometry-based quantitative proteomic analysis was performed in human lung cancer A549 cells treated with or without 2.5 μM of PU7-1 for 72 h. […] In contrast, there was no measurable decrease in the protein levels of the other 29 deubiquitinases (FIG. 3J). These findings imply that PU7-1 is an effective and selective PROTAC degrader for the USP7 protein."}, "[3]": {"target": "deubiquitinases (proteome-wide) (Homo sapiens, UniProt Q93009)", "experiment": "Mass spectrometry-based quantitative proteomic analysis in A549 cells", "format": "cell-based", "conditions": "2.5 μM, 72 h", "method": "as §2, §3, §4"}, "MDA-MB-468 FOXM1 cells": {"tested_on": "MDA-MB-468 FOXM1 cells", "experiment": "BrdU incorporation in MDA-MB-468 FOXM1 inducible cells", "format": "cell-based, human", "conditions": "10 μM, 72 h", "method": "FIGS. 6C and 6D show representative images of BrdU staining (FIG. 6C) and quantification of BrdU positive (BrdU+) cells (FIG. 6D) in MDA-MB468 FOXM1 inducible cells that were induced with 1 μg/ml Doxycycline overnight followed by the treatment of 10 μM of PU7-1 for 72 h. **p<0.01. FIGS. 6E and 6F show representative images of MDA-MB-468 FOXM1 tumors (FIG. 6E) and quantification of tumor weight (FIG. 6F) in nude mice xenograft model. **p<0.01.\nTo investigate if PU7-1-mediated effects in TNBC depend on FOXM1, it was first attempted to establish a FOXM1 crispr knockout cell line. Unfortunately, it was not possible to generate the FOXM1 knockout cell line, likely because FOXM1 is an essential gene for cell survival. […] Alternatively, an inducible FOXM1 overexpression cell line was generated in MDA-MB-468 cells (MDA-MB-468 FOXM1 cells). Doxycycline induces high levels of FOXM1 expression in MDA-MB-468 FOXM1 overexpression cells (FIG. 6A). The effects of PU7-1 on cell proliferation were compared in control and doxycycline-treated MDA-MB-468 FOXM1 cells using BrdU incorporation assay. […] Next, the role of FOXM1 in PU7-1-induced tumor suppression was tested. MDA-MB-468 FOXM1 overexpression cells were subcutaneously inoculated into 6-8-week female nude mice fed with doxycycline diet at the dosage of 625 mg/kg to induce exogenous FOXM1 expression. […]"}}}
{"compound": "O=C1CCC(N2Cc3c(CCCCCN4CCN(CCC(=O)Nc5ccc6c(=O)n(CC7(O)CCN(C(=O)C(CCCNC(=O)c8ccc9c(Cl)c%10c(nc9c8)CCCC%10)Cc8ccccc8)CC7)cnc6c5)CC4)cccc3C2=O)C(=O)N1", "note": "(stereo not drawn)", "values": [{"measurement": "FOXM1 downstream target genes expression", "setting": "[1]", "value": "significantly downregulated"}, {"measurement": "FOXM1 protein levels", "setting": "FOXM1", "value": "significantly decreased"}, {"measurement": "protein levels of the other 29 deubiquitinases", "setting": "[2]", "value": "no measurable decrease"}, {"measurement": "USP7 change among ~5500 proteins quantified", "setting": "[3]", "value": "most significantly decreased protein"}, {"measurement": "reduction of BrdU positive cells", "setting": "MDA-MB-468 FOXM1 cells; FOXM1 overexpression induced by 1 μg/ml doxycycline", "value": "no reduction"}, {"measurement": "BrdU positive cells after treatment", "setting": "MDA-MB-468 FOXM1 cells; control cells (no doxycycline), untreated 32%", "value": 15, "unit": "%"}]}
